In this assay the target is D(2) dopamine receptor (Homo sapiens, UniProt P14416).

Chains of the proteins cited; added tags and fusions are not shown.
UniProt P14416, whole entry: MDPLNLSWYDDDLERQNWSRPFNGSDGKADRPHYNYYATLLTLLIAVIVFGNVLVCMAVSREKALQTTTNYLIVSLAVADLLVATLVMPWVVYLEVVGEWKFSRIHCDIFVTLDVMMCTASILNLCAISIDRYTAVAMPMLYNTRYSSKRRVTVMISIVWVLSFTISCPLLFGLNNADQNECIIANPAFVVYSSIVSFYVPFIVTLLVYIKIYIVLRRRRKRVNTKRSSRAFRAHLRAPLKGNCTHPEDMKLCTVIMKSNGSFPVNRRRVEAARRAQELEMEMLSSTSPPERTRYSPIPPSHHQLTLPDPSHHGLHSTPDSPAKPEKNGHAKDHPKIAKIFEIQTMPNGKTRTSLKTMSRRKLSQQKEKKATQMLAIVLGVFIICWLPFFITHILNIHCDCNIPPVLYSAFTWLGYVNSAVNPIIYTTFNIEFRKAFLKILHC

In general, Ki refers to the dissociation constant of the complex between target and ligand, obtained from inhibition or displacement. Lower therefore signals a stronger hold on the target.

As to `CCN1CCC[C@H]1CNC(=O)c1c(O)c(Cl)cc(Cl)c1OC` [3,5-Dichloro-N-(1-ethyl-pyrrolidin-2-ylmethyl)-2-hydroxy-6-methoxy-benzamide (raclopride)], the affinity, expressed as Ki, was 0.6 nM. This lies in the sub-nanomolar range.

Source of the values: BindingDB's records for PubMed 8099194 (Astra Arcus, 1993).
